Results from publication PMC7043210, “Differential activation of G protein‐mediated signaling by synthetic cannabinoid receptor agonists” (Pharmacology Research & Perspectives, 2020).

Protein sequences, listed by entry. Tags and fused reporters are not part of them.
UniProt P21554, whole entry: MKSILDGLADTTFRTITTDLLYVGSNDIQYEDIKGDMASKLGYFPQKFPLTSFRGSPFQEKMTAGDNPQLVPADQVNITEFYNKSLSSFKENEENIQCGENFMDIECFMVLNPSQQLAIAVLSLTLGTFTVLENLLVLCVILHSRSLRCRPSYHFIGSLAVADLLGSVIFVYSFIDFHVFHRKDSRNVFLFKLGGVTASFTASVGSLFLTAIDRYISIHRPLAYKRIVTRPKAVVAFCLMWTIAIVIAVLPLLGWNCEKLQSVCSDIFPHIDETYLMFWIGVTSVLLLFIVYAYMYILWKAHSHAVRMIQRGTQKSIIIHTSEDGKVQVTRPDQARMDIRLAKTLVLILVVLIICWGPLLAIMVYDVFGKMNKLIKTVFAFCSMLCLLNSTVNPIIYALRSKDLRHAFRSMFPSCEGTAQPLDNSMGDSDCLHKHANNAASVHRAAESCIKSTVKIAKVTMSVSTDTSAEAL

Target: human CB1 receptor (Homo sapiens, UniProt P21554)
Assay: Inhibition of FSK-induced cAMP accumulation (Gαi/o, non-PTX treated), CAMYEL BRET biosensor, HEK-CB1 cells
Assay type: cell-based
Settings: FSK 100%, vehicle 0%, three parameter fit, ± SEM

Compound: CCCCCn1cc(C(=O)c2cccc3ccccc23)c2ccccc21 [JWH‐018]
- G i (‐PTX) E max (% FSK): 64 % FSK and 64 ± 3 % FSK

Values joined by “and” are separate entries in the source; they are usually repeats but may differ in a detail not shown here. Equal values may be shown once.
